Results from patent US9168295B2, “Vaccine peptide combinations” (Circassia Limited, priority 2007, dated 2015).

Test system: peripheral blood basophils (PBMC) from cat allergic subjects
Assay: Histamine release assay and histamine ELISA
Format: cell-based, human
Method: Histamine release from fresh peripheral whole blood from cat allergic subjects was evaluated. Peripheral blood basophils were used as a surrogate for tissue mast cells which were not practical to assay. Blood was incubated in vitro with 9 individual peptides from the sequence of the major cat allergen Fel d 1 (SEQ ID NOS: 1, 2, 3, 4, 5, 6, 7, 11 and 12). These peptides were selected as potential T cell epitopes following peptide-MHC binding assays as explained in Example 1. Additionally, responses to a preferred mixtures of a mixture of 7 peptides identified in Example 1 were analysed. The tested preferred mixture of 7 peptides consisted of the peptides of SEQ ID NOS: 1 to 7. Histamine release in response to whole cat dander allergen extract acted as a positive control.
Peripheral blood mononuclear cells (PBMC) were isolated from the heparinised blood sample obtained from the subject. PBMC's were isolated by Ficoll-Hypaque density gradient separation. […]
Assays were performed on PBMC (which contain basophils). […] Histamine concentrations were measured by ELISA.
The assay required 3×10^6 PBMC's per subject. […] Once the results had been analysed and the ELISA performed in a satisfactory manner, the samples were discarded. […]
After completion of the histamine ELISA, individual histamine levels were determined by interpolation for the standard curve generated in the ELISA assay. […]

- number of individuals in whom histamine release was detected: 4
SMILES: CC[C@H](C)[C@H](NC(=O)[C@@H](N)CCC(=O)O)C(=O)N[C@@H](CS)C(=O)N1CCC[C@H]1C(=O)N[C@@H](C)C(=O)N[C@H](C(=O)N[C@@H](CCCCN)C(=O)N[C@@H](CCCNC(=N)N)C(=O)N[C@@H](CC(=O)O)C(=O)N[C@H](C(=O)N[C@@H](CC(=O)O)C(=O)N[C@@H](CC(C)C)C(=O)N[C@@H](Cc1ccccc1)C(=O)N[C@@H](CC(C)C)C(=O)N[C@H](C(=O)NCC(=O)N[C@H](C(=O)O)[C@@H](C)O)[C@@H](C)O)C(C)C)C(C)C [MLA01, EICPAVKRDVDLFLTGT]
